## Yeast mating assay B: variants of the scFv Ab-14

Reference: Li et al. 2023, doi:10.1038/s41467-023-39022-2. File: FLAb, binding data.

Target: peptide PDVDLGDISGINAS, taken from heptad repeat 2 (HR2) of SARS-CoV-2 spike.

Parent scFv Ab-14: VH joined to VL by a 15-residue (Gly4Ser)3 linker. Changes lie in the heavy chain CDRs alone.
VH: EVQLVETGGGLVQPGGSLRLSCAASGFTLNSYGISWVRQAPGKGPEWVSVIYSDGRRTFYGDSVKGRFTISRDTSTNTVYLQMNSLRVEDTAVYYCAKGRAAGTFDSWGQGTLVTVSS
VL: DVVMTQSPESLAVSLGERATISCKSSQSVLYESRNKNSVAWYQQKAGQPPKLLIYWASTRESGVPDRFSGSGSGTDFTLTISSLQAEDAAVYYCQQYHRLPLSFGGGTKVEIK

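Phage display of a naive human antibody library on the peptide gave the parent. Designed CDR sequences, proposed from the first random library and measured here. Several design methods are mixed in this list. Affinity was read by AlphaSeq, a pooled yeast mating assay with surface-displayed partners. The frequency of each diploid, read from paired DNA barcodes, reflects how well the two displayed proteins bind. Each replicate has its own calibration line, from reference interactions of the BCL2 family. Each pool was mated in six replicate cultures.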

Each variant is given by its three heavy chain CDRs, as the data file delimits them; those of the parent are GFTLNSYGIS, VIYSDGRRTFYGDSVK, GRAAGTFDS. The read-out is the apparent dissociation constant on a log10 scale (nM): the lower, the stronger. Averages over replicates are reported, and they cover detected replicates only. An entry "not detected" has no value in the source: the pair was not observed among the diploids in any replicate. This suggests poor binding but is not conclusive. As a blank, each scFv also met three strains without target: over all heavy chain designs, 1% of these pairings were detected, typically at 2.08 and seldom below 0.84. For each scFv, signals with the empty controls are counted beside the result. Some sequences occur more than once in the pool; their replicates are pooled. In the paper, a design with two or fewer of six values counts as a poor binder. The range of this assay differs from that of the first round, and the authors advise against merging the two.

CDR-H1 | CDR-H2 | CDR-H3 | mean log10 Kd (nM) | detected | signal with controls
GFSLDEYGIS | VIYADGMRTFYQDDVK | GNVAGTFDV | 0.04 | 6/6 | 0/18
GFDLDEYGIS | VIYADGRRTSYIDSVK | GETAGTFDS | -0.03 | 6/6 | 0/18
GFELNSYGRS | VIYSDGRRTFYGDSVK | GRAAGTFDS | 1.96 | 1/6 | 0/18
GFDVNEYGIS | VIYADGRRTQYTQDVK | GKNNMVLYV | 0.27 | 6/6 | 1/18
GFNLDEYGVS | VIYADGHRTAYVNTVK | GKTGVVDDD | not detected | 0/6 | 0/18
GFTLNSYGIS | VIYSDGRRTFYSDSVK | GRAAGTGDS | not detected | 0/6 | 0/18
GFQLNSYGIS | VIYSDGRRTFYADSVK | GRAAGTFDS | 0.12 | 6/6 | 1/18
GFNLNSYGIS | VIYSDGRRTMYGDSVK | GRQAGTFDS | 1.83 | 6/6 | 0/18
GFDLNEYGIS | VIYADGRRTAYTDSVK | GQVAGTFDA | 0.02 | 6/6 | 0/18
GFDLNEYGIS | VIYADGQRTAYADSVK | GNVAGTFDI | -0.39 | 6/6 | 0/18
GFTLNSYGIS | VIYSDGRRTFYGDSVK | GQADGTFDS | 2.58 | 1/6 | 0/18
GFTLNSYGIS | VIYSDGRRTFYGDSVK | GQLAGTFDL | 0.96 | 5/6 | 1/18
GFYLNDYGIS | VIYSDGRRTFYGDSVK | GRTAGTFDT | 1.63 | 6/6 | 2/18
GFWVNEYGIS | VIYYDGRRTFYHQSVK | RRAAVTFDQ | not detected | 0/6 | 0/18
GFSLNNYGIS | VIYSDGRRTFYGDSVK | GRAAGTFDS | 0.79 | 12/12 | 1/36
GFDLNSYGIS | VIYSDGRRTFYKDSVK | GWTAGTFDS | -0.06 | 6/6 | 0/18
GFELNSYGIS | VIYSDGRRTFYADSVK | GRNAGTFDT | 0.31 | 6/6 | 0/18
GFDLEEYGIS | VIYADGKRTAYADSVK | GNVAGTFDI | -0.55 | 5/6 | 0/18
GLTANSYGIS | VIYADGRRTFYGDSVK | GRAAVTNKS | not detected | 0/6 | 1/18
GFTLDNYGIS | VIYSDGRRTFYSDSVK | GRAAGTFDS | 0.67 | 5/6 | 0/18
GFDLNEYGIS | VIYADGRRTFYSDSVK | GAVAGTFDE | -0.51 | 6/6 | 0/18
GFTLQSYGIS | VIYSDGRRTFYDDSVK | GKLAGTFDS | -0.71 | 6/6 | 0/18
GFALNSYGIS | VIYSDGRRTFYDDSVK | GRLAGTFDS | 0.87 | 6/6 | 3/18
GFDLNEYGIS | VIYADGRRTAYIDSVK | GNAAGTFDS | -0.16 | 6/6 | 0/18
GFSLNDYGIS | VIYSDGRRTFYIDSVK | GQAAGTFDS | 0.48 | 6/6 | 0/18
GFHLNSYGIS | VIYSDGRRTFYADSVK | GRVAGTFDS | 0.40 | 6/6 | 0/18
GFTLNSYGIS | VIYSDGRRTFYADSVK | GNAAGTFDT | 0.48 | 6/6 | 0/18
GFDLNTYGIS | VIYSDGMRTFYGDSVK | GRTAGTFDS | 0.34 | 6/6 | 0/18
GFDLDEYGIS | VIYADGMRTAYTDSVK | GTNAGTFDV | -0.98 | 6/6 | 0/18
GFALEEYGIS | VIYADGKRTAYANKVK | GGYSFLKGI | not detected | 0/6 | 0/18
GFTLNEYGIS | VIYSDGRRTFYGDRVK | GRTAGTFDT | 0.22 | 6/6 | 1/18
GFWLNSYGIS | VIYSDGRKTFYKDSVD | GRAAGTFDS | 1.41 | 4/6 | 0/18
GFDLNSYGIS | VIYSDGRRTFYSDSVK | GQVAGTFDS | -0.35 | 6/6 | 0/18
GFTLESYGIS | VIYSDGRRTFYIDSVK | RRAAGTFRS | not detected | 0/6 | 0/18
GFDLDEYGIS | VIYADGMRTFYADDVK | GNVAGTFDL | -0.48 | 6/6 | 1/18
GFDLDEYGIS | VIYADGMRTAYTDSVK | GNVAGTFDM | -0.30 | 6/6 | 0/18
GFTLNQYGIS | VIYSDGRRTFYADSVK | GRNAGTFDS | -0.18 | 6/6 | 0/18
KFELNNYGIS | VIYSDGRRTFYGDSVK | GRTAGTFDS | 2.43 | 4/6 | 0/18
GFTLHSLGIS | VIAADGRWTFYGDSVK | GRAAGTNKS | not detected | 0/6 | 0/18
GFSLNKYGIS | VIYSDGRRTFYGDSVK | GRTAGTFDS | 0.97 | 6/6 | 0/18
GFTLNEYGIS | VIYSDGRRTFYGDSVK | GEAAGTFDS | 0.50 | 6/6 | 0/18
GFTLLSYGIS | VIYSDGIRTFYGDSVK | GRAAGTFDS | not detected | 0/6 | 0/18
GFTLNSYGIS | VIYADGRRTIYGDSVK | GRAAGTNKS | not detected | 0/6 | 0/18
GFTLNSYGIH | VIYSDGRRTFYGDEVK | GRAAGTFDS | 1.88 | 2/6 | 0/18
GFVLNEYGIS | VIYSDGRRTFYADSVK | GRAAGTFDK | 0.68 | 6/6 | 0/18
GFRLNSYGIS | VIYSDGWRVFYGDSVK | GQAAGTFDL | 1.69 | 1/6 | 1/18
GFDLNEYGIS | VIYADGRRTSYIDSVK | GTNAGTFDS | -0.80 | 6/6 | 0/18
GFTLNEYGIS | VIYSDGRRTFYGDSVK | GRAAGTFFT | not detected | 0/6 | 0/18
GFTLNSYGIS | VIYSDGRRTFYGDDVK | GQAAGTFDL | 1.81 | 3/6 | 0/18
GFNLNSYGIS | VIYSDGRRTFYGDSVK | GREAGTFDS | 0.08 | 12/12 | 0/36
GFTLNSYGIS | VIYADGRRTFYADSVK | GDAYGTFDS | not detected | 0/6 | 0/18

Again, the first 5 entries without any signal:

CDR-H1	CDR-H2	CDR-H3	mean log10 Kd (nM)	detected	signal with controls
GFNLDEYGVS	VIYADGHRTAYVNTVK	GKTGVVDDD	not detected	0/6	0/18
GFTLNSYGIS	VIYSDGRRTFYSDSVK	GRAAGTGDS	not detected	0/6	0/18
GFWVNEYGIS	VIYYDGRRTFYHQSVK	RRAAVTFDQ	not detected	0/6	0/18
GLTANSYGIS	VIYADGRRTFYGDSVK	GRAAVTNKS	not detected	0/6	1/18
GFALEEYGIS	VIYADGKRTAYANKVK	GGYSFLKGI	not detected	0/6	0/18